The results in this text go back to patent US20120040951A1, “HETEROARYL COMPOUNDS USEFUL AS RAF KINASE INHIBITORS” (priority 2008, published 2012).

Amino acid sequences for entries named in this document (tags omitted).
UniProt P15056, whole entry V600E: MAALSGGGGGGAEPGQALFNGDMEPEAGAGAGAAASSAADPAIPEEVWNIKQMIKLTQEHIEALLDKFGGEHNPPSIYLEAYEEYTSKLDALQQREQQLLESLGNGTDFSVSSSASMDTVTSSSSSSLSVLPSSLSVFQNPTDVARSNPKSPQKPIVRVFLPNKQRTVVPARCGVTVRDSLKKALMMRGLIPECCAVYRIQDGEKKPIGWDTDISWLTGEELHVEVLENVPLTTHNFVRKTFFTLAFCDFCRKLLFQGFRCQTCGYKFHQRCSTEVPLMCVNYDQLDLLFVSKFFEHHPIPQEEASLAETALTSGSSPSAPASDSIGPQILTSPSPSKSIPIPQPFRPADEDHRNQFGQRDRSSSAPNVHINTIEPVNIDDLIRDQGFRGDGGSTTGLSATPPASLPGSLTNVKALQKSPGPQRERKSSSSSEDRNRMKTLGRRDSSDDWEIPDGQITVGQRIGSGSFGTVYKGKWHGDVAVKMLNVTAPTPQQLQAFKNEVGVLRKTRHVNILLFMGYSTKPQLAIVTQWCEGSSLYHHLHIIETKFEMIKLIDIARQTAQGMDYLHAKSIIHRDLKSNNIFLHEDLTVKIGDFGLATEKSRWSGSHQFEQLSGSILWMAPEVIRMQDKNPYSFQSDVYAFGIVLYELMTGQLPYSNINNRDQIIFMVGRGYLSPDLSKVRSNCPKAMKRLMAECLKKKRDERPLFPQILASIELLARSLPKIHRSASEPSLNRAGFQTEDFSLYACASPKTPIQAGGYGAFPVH

Bounds are passed on as bounds.

By EC50 is commonly meant the concentration giving half of the maximal effect.

One assay concerns the target V599E Raf (Homo sapiens, UniProt P15056, V600E). Kind of assay: Biochemical FRET assay, mutant Raf (phosphorylation of MEK). To be noted: read-out: Raf (mut) inhibition, 0.125 nM V599E Raf, 100 nM biotin-MEK, 25 μM ATP. The protocol:
(1) Biochemical FRET Assay […]
Inhibitors were diluted 4-fold in 100% DMSO and added to a final concentration of 10 μM to 40 μM to a solution containing 100 nM biotin-MEK, 0.125 nM V599E Raf in 50 mM HEPES, pH 7.4, 60 mM NaCl, 3 mM MgCl2, 2 mM DTT, 0.25 mM MnCl2, 0.01% BSA, and 0.01% Tween-20 and incubated for 20 minutes at room temperature. The kinase reaction was started by the addition of 25 μM ATP to a final volume of 45 μl and allowed to progress for 60 minutes. The reaction was stopped with 15 mM EDTA and 20 nM Streptavidin-APC, 2.5 nM Polyclonal anti p-MEK1/2 (Ser217/221), 2.5 nM Eu-labeled anti-rabbit IgG were added in Lance detection buffer and 5% Superblock in PBS for a final volume of 100 μl. The detection reaction was incubated for 90 minutes at room temperature and then read on an Analyst plate reader using standard TR-FRET (time resolved fluorescence resonance energy transfer) settings for Eu and APC.
Compounds having an activity designated as “A” provided an IC50≦100 nM; compounds having an activity designated as “B” provided an IC50 of 100-1000 nM; and compounds having an activity designated as “C” provided an IC50 of 1000-10,000 nM.

The test system of assay [1] is phospho-ERK in melanoma derived WM-266-4 cells. Kind of assay: Mechanistic cellular assay for Raf kinase activity (phospho-ERK, Bio-Plex). To be noted: read-out: pERK EC50, treated 1-2 hr at 37° C., serum free medium. An excerpt:
(2) Mechanistic Cellular Assay for Raf Kinase Activity
The following method was utilized for quantifying the amount of phospho-ERK in melanoma derived WM-266-4 cells (one allele each of wild type BRaf and mutant BRaf (V600D) as an indicator of Raf kinase activity in cells treated with various kinase inhibitors.
(1) Detached adhered WM-266-4 cells from flask using 0.25% Trypsin. Resuspended cells in growth media (90% RPMI 1640, 10% FBS) and determine cell density.
(2) Seeded cells @ 10,000 cells/well in 96-well (flat bottom) tissue culture plates (36,000 cells/cm^2). Added growth media to a final volume of 200 uL/well and incubated overnight at 37° C.
(1) Prepared compound dilutions (1000× in DMSO) as follows. […]
(2) Prepared phospho-ERK1,2 Bioplex beads by diluting 1:50 with Bioplex Wash Buffer (mixing 49 μL Wash Buffer with 1 μL of phospho-ERK1,2 Bioplex beads for each sample to be analyzed). […]
(1) Prepared detection antibody (phospho-ERK1,2 Ab) by diluting 1:25 with Detection Antibody Dilution Buffer Buffer (mixing 24 μL Detection Antibody Dilution Buffer with 1 μL of phospho-ERK1,2 Ab for each sample to be analyzed). […]
(3) Prepared streptavidin-PE by diluting 1:100 with Wash Buffer (mixing 49.5 μL Wash Buffer with 0.5 μL of 100× streptavidin-PE for each sample to be analyzed). […]

On to `CC(NC(=O)c1cnc2ncccn12)c1cnc(Nc2ccc(C(F)(F)F)cc2)s1` (centres unmarked) [Example 310], for which, at V599E Raf, the IC50 is less than 100 nM. For the same compound, the EC50 in assay [1] lay in the range of 100 to 1000 nM.
